The assay deals with PKa (Homo sapiens, UniProt P03952). As to the kind of experiment: DXS-activated cleavage of HK in undiluted plasma (immunoblot). The note with it: 300 nM inhibitor; % of HK remaining after 20 min incubation with DXS vs unactivated plasma. Type of assay: biochemical. On the procedure:
DXS-activated cleavage of HK in undiluted plasma was performed in the absence or presence of 300 nM PKa inhibitor and quantified by SDS-PAGE gel electrophoresis, using 7.5% Criterion TGX Precast gels (Biorad). Transfer was made onto Immunobilon-FL PVDF membrane. Image analysis was done using the LICOR imaging system. Mouse monoclonal anti-HK antibody (MAB15692, R&D systems) was used for traditional immunoblotting. Data presented as % of HK remaining after 20 min incubation with DXS compared to HK levels in unactivated plasma (Table 1).
For orientation: A western blot detects proteins with antibodies after separation by electrophoresis.

Amino acid sequences for entries named in this document (tags omitted). Residues count along the entry.
UniProt P03952, 20-390 partner limits assumed: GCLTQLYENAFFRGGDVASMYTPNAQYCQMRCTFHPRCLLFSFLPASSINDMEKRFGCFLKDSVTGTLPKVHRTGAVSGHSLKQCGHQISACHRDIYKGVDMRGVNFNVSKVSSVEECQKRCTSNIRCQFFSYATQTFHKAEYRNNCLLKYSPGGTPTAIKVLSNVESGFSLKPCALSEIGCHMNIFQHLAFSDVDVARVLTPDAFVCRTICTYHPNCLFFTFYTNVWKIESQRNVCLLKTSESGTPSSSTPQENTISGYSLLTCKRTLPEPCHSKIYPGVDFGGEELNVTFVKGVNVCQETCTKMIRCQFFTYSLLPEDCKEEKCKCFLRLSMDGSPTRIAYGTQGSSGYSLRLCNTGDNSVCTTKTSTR
UniProt P03952, 391-638 limits assumed: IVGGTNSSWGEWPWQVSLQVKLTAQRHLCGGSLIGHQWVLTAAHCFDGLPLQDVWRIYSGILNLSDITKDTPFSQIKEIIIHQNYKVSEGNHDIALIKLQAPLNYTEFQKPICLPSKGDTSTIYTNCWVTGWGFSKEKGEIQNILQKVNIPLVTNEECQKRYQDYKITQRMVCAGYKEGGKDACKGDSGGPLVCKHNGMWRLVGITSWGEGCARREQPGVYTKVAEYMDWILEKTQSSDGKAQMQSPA

SMILES strings stand for the structures.

For `COCc1nn(Cc2ccc(Cn3ccccc3=O)cc2)cc1C(=O)NCc1nccc(OC)c1F` [compound of Formula A, N-[(3-fluoro-4-methoxypyridin-2-yl)methyl]-3-(methoxymethyl)-1-({4-[(2-oxopyridin-1-yl)methyl]phenyl}methyl)pyrazole-4-carboxamide], the HK protection turned out to be 85%.

(Values after patent US20240122909A1, “TREATMENTS OF HEREDITARY ANGIOEDEMA” (KALVISTA PHARMACEUTICALS LIMITED, priority 2021, published 2024).)
